Measured values as given in patent US20190022104A1 (priority 2016, published 2019).

Tested on: mouse sepsis model (LPS 75 mg/kg)
Assay: Effects of different doses of pirenzepine in LPS mouse sepsis model
Settings: C57BL/6 mice

CN1CCN(CC(=O)N2c3ccccc3C(=O)Nc3cccnc32)CC1 [pirenzepine, 11-[(4-methylpiperazin-1-yl)acetyl]-5,11-dihydro-6H-pyrido[2,3-b][1,4]benzodiazepin-6-one]
mean survival time (0.3 mg/kg i.p. pretreatment 30 min before LPS 75 mg/kg i.p.): 29.600 ± 3.686 h | average survival time (1.2 mg/kg i.p. pretreatment 30 min before LPS 75 mg/kg i.p.): 24.030 ± 2.437 h
